Values of other authors, collected in article PMC9080015 (RSC Advances, 2018).

Biological target: T1, recombinant human CYP1B1 (Homo sapiens, UniProt Q16678)
T1 sequence (Q16678 1-543): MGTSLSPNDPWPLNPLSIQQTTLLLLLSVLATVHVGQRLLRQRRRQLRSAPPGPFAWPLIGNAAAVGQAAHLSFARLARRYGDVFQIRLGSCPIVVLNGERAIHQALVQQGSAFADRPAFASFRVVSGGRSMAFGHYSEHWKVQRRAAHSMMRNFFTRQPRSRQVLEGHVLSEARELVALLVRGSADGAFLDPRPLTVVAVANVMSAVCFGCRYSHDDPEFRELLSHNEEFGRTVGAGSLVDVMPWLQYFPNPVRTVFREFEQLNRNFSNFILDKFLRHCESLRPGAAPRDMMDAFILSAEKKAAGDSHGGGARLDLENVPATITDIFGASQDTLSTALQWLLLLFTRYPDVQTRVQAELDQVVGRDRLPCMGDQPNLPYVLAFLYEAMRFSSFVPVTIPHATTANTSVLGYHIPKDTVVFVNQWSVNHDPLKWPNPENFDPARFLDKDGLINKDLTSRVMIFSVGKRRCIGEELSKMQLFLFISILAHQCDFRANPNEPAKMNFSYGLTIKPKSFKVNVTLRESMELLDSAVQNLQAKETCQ
Conditions: read-out: IC50 CYP1B1; recombinant human enzyme; cited from earlier work

In the case of `O=c1cc(-c2ccccc2)oc2c1ccc1ccccc12` [ANF, α-Naphthoflavone], the IC50 is listed as 5 nM.
